Reference: patent US9067935B2 (Janssen Pharmaceutica, NV, priority 2010, dated 2015)

Protein sequences, listed by entry. Tags and fused reporters are not part of them. Residues count along the entry.
UniProt Q1A7N1, 1-1104: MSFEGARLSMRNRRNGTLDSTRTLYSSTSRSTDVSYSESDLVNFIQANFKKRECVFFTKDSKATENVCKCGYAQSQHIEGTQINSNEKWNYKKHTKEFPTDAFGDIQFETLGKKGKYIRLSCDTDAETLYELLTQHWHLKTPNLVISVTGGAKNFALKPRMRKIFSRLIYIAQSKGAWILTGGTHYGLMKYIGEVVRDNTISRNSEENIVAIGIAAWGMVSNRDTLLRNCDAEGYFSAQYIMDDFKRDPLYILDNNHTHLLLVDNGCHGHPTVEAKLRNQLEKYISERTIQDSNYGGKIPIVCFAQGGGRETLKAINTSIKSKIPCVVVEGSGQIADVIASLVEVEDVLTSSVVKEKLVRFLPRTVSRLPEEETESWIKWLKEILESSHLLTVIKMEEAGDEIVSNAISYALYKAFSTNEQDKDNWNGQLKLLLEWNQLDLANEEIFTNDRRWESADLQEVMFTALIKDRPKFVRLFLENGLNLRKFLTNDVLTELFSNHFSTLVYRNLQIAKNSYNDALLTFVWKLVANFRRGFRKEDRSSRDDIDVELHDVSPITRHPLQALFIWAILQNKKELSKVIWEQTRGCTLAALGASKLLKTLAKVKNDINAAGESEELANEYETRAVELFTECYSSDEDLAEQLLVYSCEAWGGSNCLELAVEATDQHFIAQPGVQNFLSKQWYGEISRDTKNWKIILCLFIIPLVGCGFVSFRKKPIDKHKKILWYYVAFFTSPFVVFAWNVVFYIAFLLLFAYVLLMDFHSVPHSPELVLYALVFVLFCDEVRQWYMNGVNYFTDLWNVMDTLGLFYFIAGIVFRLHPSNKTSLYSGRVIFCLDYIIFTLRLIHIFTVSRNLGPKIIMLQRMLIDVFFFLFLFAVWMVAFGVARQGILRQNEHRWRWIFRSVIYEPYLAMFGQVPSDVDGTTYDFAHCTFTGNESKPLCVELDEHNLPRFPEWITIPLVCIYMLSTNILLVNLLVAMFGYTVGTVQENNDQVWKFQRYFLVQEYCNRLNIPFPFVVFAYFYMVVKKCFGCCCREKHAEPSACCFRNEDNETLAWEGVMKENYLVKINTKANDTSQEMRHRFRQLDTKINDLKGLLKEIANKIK

Target: canine TRPM8 (Canis lupus familiaris, UniProt Q1A7N1)
Assay: In Vitro Canine TRPM8 Functional Assay (intracellular Ca2+ fluorescence, icilin challenge)
Details: HEK293 cells stably expressing canine TRPM8

Cc1cccc2nc(N(Cc3ccc(OC(F)(F)F)cc3)S(=O)(=O)c3ccccc3)c(C)n12
% Inh (%) @ 0.2 μM (@ 0.2 μM): 100% | IC50 (read-out: TRPM8 IC50, icilin at ~80% maximal response): 0.0104 µM
